This is a selection; strong and weak results do not stand in their true shares. Results filed as inconclusive are left out. The source made the active and inactive calls. The call rests on the fitted dose curve; in most records, active means well fitted inhibition curve with a large enough effect; inconclusive means small, poorly fitted or top-dose-only effect, or effect the other way; inactive means no such curve, though single readings can be large or run the other way.

Chains of the proteins cited; added tags and fusions are not shown.
UniProt Q9NR56, whole entry: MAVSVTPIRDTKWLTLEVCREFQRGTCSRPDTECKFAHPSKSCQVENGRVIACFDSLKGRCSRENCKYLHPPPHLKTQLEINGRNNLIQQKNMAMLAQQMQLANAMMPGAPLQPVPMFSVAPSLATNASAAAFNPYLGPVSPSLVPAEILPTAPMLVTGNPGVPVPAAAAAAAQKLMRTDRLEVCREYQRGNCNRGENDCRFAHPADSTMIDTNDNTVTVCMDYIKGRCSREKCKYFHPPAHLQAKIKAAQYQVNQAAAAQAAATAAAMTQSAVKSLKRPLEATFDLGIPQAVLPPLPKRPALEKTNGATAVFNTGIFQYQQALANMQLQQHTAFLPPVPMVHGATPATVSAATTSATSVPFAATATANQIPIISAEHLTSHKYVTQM

We go through 2 molecules from PubChem BioAssay AID493205 (National Center for Advancing Translational Sciences (NCATS), 2011).

The test has as its target Muscleblind-like protein 1 (Homo sapiens) (UniProt Q9NR56). The test can be described thus: qHTS Assay for Inhibitors of MBNL1-poly(CUG) RNA binding: Initial hit validation in AlphaScreen assay for MBNL1-(CUG)12 binding. The conditions noted are these: AlphaScreen MBNL1-His / biotin-(CUG)12 binding. The source says: NIH Chemical Genomics Center [NCGC] NIH Molecular Libraries Probe Production Centers Network [MLPCN] MLPCN Grant: R03 MH087421-01 Assay Submitter (PI): Charles Thornton NCGC Assay Overview: Expanded CTG repeats in the 3' untranslated region of the DM protein kinase (DMPK) gene causes type I myotonic dystrophy (DM1). DM1 is a multi-systemic disease with a prevalence of 1/7000. Clinical features include myotonia, progressive muscle weakness and wasting, cardiac arrhythmia, insulin resistance, hypersomnolence, cataracts, and other symptoms. The pathogenic effect of expanded CTG repeats stems from deleterious effects of the mutant transcript. CUGexp mRNA accumulates in nuclear foci and sequesters proteins of the muscleblind family, of which MBNL1 is the most common family member in skeletal muscles. […]
NCGC Assay Protocol Summary: This is a proximity-based binding assay with MBNL1-His and Biotin-(CUG)12 RNA. […] The AC50 values were determined from concentration-response data modeled with the standard Hill equation Assay buffer: 20mM HEPES, 110mM KCl, 10mM NaCl, 2mM MgCl2, 2mM CaCl2, 5mM DTT, 0.1% BSA, 0.05% Tween 20 1536-well assay protocol for the MBNL1-(CUG)12 binding assay: (1) Add 2 ul/well 20nM MBNL1-His, 20nM Biotin-(CUG)12 (2) Add 23 nL compounds in DMSO solution. […]
(In general: qHTS replaces the single test concentration by a dilution series.)
As to `N#[O+].[C-]#N.[C-]#N.[C-]#N.[C-]#N.[C-]#N.[Fe+2].[Na+].[Na+]`, the Potency is active: 35.5 µM.
Consider `C/C1=C2N=C(/C=C3N=C(/C(C)=C4\[N-][C@@](C)([C@H]5N=C1[C@@](C)(CCC(=O)NC[C@H](C)OP(=O)([O-])O[C@@H]1[C@H](O)[C@H](n6cnc7cc(C)c(C)cc76)O[C@@H]1CO)[C@@H]5CC(N)=O)[C@](C)(CC(N)=O)[C@H]4CCC(N)=O)[C@@](C)(CC(N)=O)[C@@H]\3CCC(N)=O)C(C)(C)[C@@H]/2CCC(N)=O.[C-]#N.[Co+3]`, for which the Potency was active: 7.83 µM.
